Source: patent US20040081655A1, “Methods and compositions comprising polycationic compounds” (priority 2001, published 2004)

Columns and labels:
[1] = Depot formation at the injection site, fluorescence-labelled compounds, photos (Example 2a); assay type: in vivo, Mice C57Bl/6; conditions: s.c. into the right flank; photos of injection sites
Description: On day 0 mice were injected subcutaneously into the right flank with a total volume of 100 μl containing the above mentioned compounds. Animals were sacrificed at the indicated time points after injection and photos were taken from the injection sites (FIG. 2a).

[2] = FACS analyses of lymphoid and non-lymphoid tissues for CpG-ODN-Cy5 (Example 2b); assay type: in vivo, Mice C57B1/6; conditions: co-application of poly-L-arginine; FACS at day 1
Description: Mice were injected subcutaneously into the right flank with a total volume of 100 μl containing the above mentioned compounds. One day after injection, mice were sacrificed and FACS-analyses were performed from secondary lymphoid organs (draining lymph node, spleen) as well as non-lymphoid tissues (lung, liver, kidney, heart) (FIG. 2b).

[3] = Depot formation at the injection site at day 4, labelled TRP-2 peptide/pR60/CpG-ODN (Example 3); assay type: in vivo, Mice C57Bl/6; conditions: co-injected at least with one more molecule
Description: On day 0 mice were injected subcutaneously into the right flank with a total volume of […] containing the above mentioned compounds. Animals were sacrificed at day 4 after injection and photos were taken from the injection sites (FIG. 3).

## Poly-L-Arginine
[1]
  formation of a depot at the injection site: induces the formation of a depot at the injection site
[2]
  spreading of CpG-ODN-Cy5 throughout the body: inhibits the spreading of CpG-ODN-Cy5 throughout the body
[3]
  formation of a depot at the injection site: induces the formation of a depot at the injection site
